Measurements as given in ChEMBL document CHEMBL2429861, “Chemopreventive and antioxidant activity of 6-substituted imidazo[2,1-b]thiazoles” (Eur J Med Chem, 2013).

The chains behind the UniProt entries cited, without tags or fusion partners.
UniProt Q64669, whole entry: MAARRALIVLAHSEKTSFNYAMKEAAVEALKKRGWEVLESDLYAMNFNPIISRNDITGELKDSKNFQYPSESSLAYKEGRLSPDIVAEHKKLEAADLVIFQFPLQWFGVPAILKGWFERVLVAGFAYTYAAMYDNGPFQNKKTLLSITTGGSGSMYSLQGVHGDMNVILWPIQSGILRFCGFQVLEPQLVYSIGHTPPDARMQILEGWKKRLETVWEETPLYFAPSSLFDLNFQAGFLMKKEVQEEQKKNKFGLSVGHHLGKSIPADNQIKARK

Key:
[1] = target: NAD(P)H dehydrogenase [quinone] 1 (Mus musculus) (UniProt Q64669); test: Induction of quinone reductase-1 activity in mouse Hepa-1c1c7 cells assessed as concentration required to double induction activity by MTT assay; assay type: cell-based
Method in brief: (§1)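 Hepa 1c1c7 murine hepatoma cells incubated with compounds at […]. Cells were permeabilized with digitonin and QR1 activity measured by MTT reduction to formazan at 595 nm, with a parallel crystal violet protein assay. IR is specific activity versus DMSO control; CD is the concentration doubling activity, determined only where IR >2. Two independent experiments in triplicate.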

[2] = target: NAD(P)H dehydrogenase [quinone] 1 (Mus musculus) (UniProt Q64669); test: Induction of quinone reductase-1 activity in mouse Hepa-1c1c7 cells assessed as induction ratio at 50 uM by MTT assay relative to DMSO-treated control; assay type: cell-based; method in brief: as §1

`O=c1cc(-c2ccc(Br)cc2)oc2ccccc12` showed a CD [1] of 20 nM and a Ratio [2] of 4.2.
